Tests used:
[1] = target: T1, STAT6 (Homo sapiens, UniProt P42226); test: Selectivity of STAT6 degradation in human PBMC; type: cell-based; conditions: FIG. 1 (B)
[2] = target: STAT6-HiBiT (Homo sapiens, UniProt P42226); test: STAT6 HiBiT degradation in A549 (STAT6-HiBiT) cells
[3] = target: T1, STAT6; test: STAT6 MSD degradation in A549 cells; conditions: for DC50: read-out: STAT6 MSD degradation DC50 (nM) 24 h
In short: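 A549 cells treated with a 9-point 1:3 series (top up to 10 uM) for 4 to 24 hours at 37° C., then lysed in RIPA. STAT6 quantified by sandwich MSD electrochemiluminescence immunoassay. DC50 and Dmax from four-parameter nonlinear fit, reported as letter-code bins.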

Chains of the proteins cited; added tags and fusions are not shown.
UniProt P42226, whole entry: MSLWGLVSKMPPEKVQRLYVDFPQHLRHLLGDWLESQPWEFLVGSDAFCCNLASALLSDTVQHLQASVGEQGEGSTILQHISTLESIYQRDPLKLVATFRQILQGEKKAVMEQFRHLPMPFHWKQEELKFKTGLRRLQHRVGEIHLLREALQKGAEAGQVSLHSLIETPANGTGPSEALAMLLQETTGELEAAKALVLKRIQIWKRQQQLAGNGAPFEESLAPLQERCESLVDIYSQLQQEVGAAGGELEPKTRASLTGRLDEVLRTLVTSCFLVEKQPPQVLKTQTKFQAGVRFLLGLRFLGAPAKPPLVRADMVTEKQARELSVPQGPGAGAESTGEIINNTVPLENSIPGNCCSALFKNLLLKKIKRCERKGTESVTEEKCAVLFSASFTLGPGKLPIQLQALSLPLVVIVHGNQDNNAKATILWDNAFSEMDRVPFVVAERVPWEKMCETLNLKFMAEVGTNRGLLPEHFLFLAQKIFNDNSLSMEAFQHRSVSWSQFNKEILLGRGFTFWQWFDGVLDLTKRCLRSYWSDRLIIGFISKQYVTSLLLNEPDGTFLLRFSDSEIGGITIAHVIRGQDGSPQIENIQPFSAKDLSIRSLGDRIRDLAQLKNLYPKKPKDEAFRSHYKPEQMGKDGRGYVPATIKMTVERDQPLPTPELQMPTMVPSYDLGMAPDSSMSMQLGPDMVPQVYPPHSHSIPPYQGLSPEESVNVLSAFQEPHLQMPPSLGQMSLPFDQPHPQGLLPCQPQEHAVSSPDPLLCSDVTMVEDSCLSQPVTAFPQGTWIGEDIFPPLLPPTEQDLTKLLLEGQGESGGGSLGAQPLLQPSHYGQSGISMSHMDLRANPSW

[4] = test system: IL-4 and IL-13 CD23; test: IL-4 and IL-13 CD23 inhibition in human PBMC; type: cell-based; conditions: versus dupilumab (literature data), FIG. 2 (B)
[5] = test system: IL-4 and IL-13 TARC; test: IL-4 and IL-13 TARC inhibition in human PBMC; type: cell-based; conditions: versus dupilumab (literature data), FIG. 2 (A)
[6] = target: T1, STAT6; test: STAT6 degradation in human PBMC; type: cell-based; conditions: FIG. 1 (A)

Structure (SMILES) | selectivity of STAT6 degradation [1] | STAT6 HiBiT degradation Dmax % 24 h [2] | STAT6 MSD degradation Dmax % 24 h [3] | DC50 [3] [nM] | IL-4 and IL-13 CD23 inhibition potency [4] | IL-4 and IL-13 TARC inhibition potency [5] | STAT6 degradation [6]
CN(C)C(=O)c1cc2c(-c3ccc(N4CCN(CCCc5ccc6c(c5)n(C)c(=O)n6C5CCC(=O)NC5=O)CC4)cc3)cc(C3=CCCN(C(=O)CCn4ccnn4)C3)cc2[nH]1 (centres unmarked) | selective | A (A (>90%)) | A (A (>90%)) | < 1 | superior | superior | rapid and highly potent
COc1cc(N2CCN(CCc3ccc(C4CCC(=O)NC4=O)cc3F)CC2)ccc1-c1cc(C2=CCCN(C(=O)CCn3ccnn3)C2)c(F)c2[nH]c(C(=O)N(C)C)cc12 (centres unmarked) |  |  | A (A (>90%)) | < 1 |  |  | 
COc1cc(N2CCN(c3ccc(-c4cc(C5=CCCN(C(=O)CCn6cccn6)C5)c(F)c5[nH]c(C(=O)N(C)C)cc45)cc3)CC2)c(F)cc1NC1CCC(=O)NC1=O (centres unmarked) |  |  | A (A (>90%)) | < 1 |  |  | 

Source: patent US20260124309A1, “STAT6 DEGRADERS AND USES THEREOF” (Kymera Therapeutics, Inc., priority 2023, published 2026)
